Literature values, collected in PubChem BioAssay AID977611 (Shanghai Institute of Organic Chemistry, 2014).

How the values were obtained:
Experiment in all cases: PubChem AID 977611
[1] = biological target: UBIQUITIN CARBOXYL-TERMINAL HYDROLASE 7; conditions: PDB protein-ligand complexes, literature Kd; protein: UBIQUITIN CARBOXYL-TERMINAL HYDROLASE 7; PDB entry 2XXN
[2] = biological target: Mitogen-activated protein kinase 14 (p38-alpha); conditions: PDB protein-ligand complexes, literature Kd; protein: Mitogen-activated protein kinase 14 (p38-alpha); PDB entry 3NEW
[3] = biological target: fiber protein; conditions: PDB protein-ligand complexes, literature Kd, protein: fiber protein
[4] = biological target: flavodoxin; conditions: PDB protein-ligand complexes, literature Kd, protein: flavodoxin
[5] = biological target: 6,7-dimethyl-8-ribityllumazine synthase; conditions: PDB protein-ligand complexes, literature Kd, protein: 6,7-dimethyl-8-ribityllumazine synthase
[6] = biological target: ATPase family AAA domain-containing protein 2 ATAD2; conditions: PDB protein-ligand complexes, literature Kd, protein: ATPase family AAA domain-containing protein 2 ATAD2
[7] = biological target: Putative uncharacterized protein ST1526 ,Sua5; conditions: PDB protein-ligand complexes, literature Kd; protein: Putative uncharacterized protein ST1526 ,Sua5; PDB entry 3AJE
[8] = biological target: trypsinogen; conditions: PDB protein-ligand complexes, literature Kd, protein: trypsinogen
[9] = biological target: purine nucleoside phosphorylase (PNP); conditions: PDB protein-ligand complexes, literature Kd; protein: purine nucleoside phosphorylase (PNP); PDB entry 3K8Q
[10] = biological target: FK506 binding protein; conditions: PDB protein-ligand complexes, literature Kd; protein: FK506 binding protein; PDB entry 1FKB
[11] = biological target: Platelet aggregation factor Sm-hPAF; conditions: PDB protein-ligand complexes, literature Kd; protein: Platelet aggregation factor Sm-hPAF; PDB entry 4GWI
[12] = biological target: dodecin; conditions: PDB protein-ligand complexes, literature Kd, protein: dodecin
[13] = biological target: trypsin i; conditions: PDB protein-ligand complexes, literature Kd; protein: trypsin i; PDB entry 1UTJ
[14] = biological target: acetyl-coenzyme a carboxylase; conditions: PDB protein-ligand complexes, literature Kd; protein: acetyl-coenzyme a carboxylase; PDB entry 1W96
[15] = biological target: Human thymidylate synthase R163K; conditions: PDB protein-ligand complexes, literature Kd; protein: Human thymidylate synthase R163K; PDB entry 3HB8
[16] = biological target: immunoglobuling e; conditions: PDB protein-ligand complexes, literature Kd; protein: immunoglobuling e; PDB entry 1OAR
[17] = biological target: epsin; conditions: PDB protein-ligand complexes, literature Kd; protein: epsin; PDB entry 1H0A
[18] = biological target: non-catalytic protein 1; conditions: PDB protein-ligand complexes, literature Kd; protein: non-catalytic protein 1; PDB entry 1GWM
[19] = biological target: GLUTAMATE RECEPTOR, IONOTROPIC KAINATE 2; conditions: PDB protein-ligand complexes, literature Kd, protein: GLUTAMATE RECEPTOR, IONOTROPIC KAINATE 2
[20] = biological target: acetyl-coa carboxylase; conditions: PDB protein-ligand complexes, literature Kd; protein: acetyl-coa carboxylase; PDB entry 1W2X
[21] = biological target: 80 kda nuclear cap binding protein; conditions: PDB protein-ligand complexes, literature Kd; protein: 80 kda nuclear cap binding protein; PDB entry 1H2U
[22] = biological target: tubulin alpha chain; conditions: PDB protein-ligand complexes, literature Kd; protein: tubulin alpha chain; PDB entry 1Z2B
[23] = biological target: IRON-UPTAKE SYSTEM-BINDING PROTEIN; conditions: PDB protein-ligand complexes, literature Kd; protein: IRON-UPTAKE SYSTEM-BINDING PROTEIN; PDB entry 2XUZ
[24] = biological target: HIV-1 capsid; conditions: PDB protein-ligand complexes, literature Kd; protein: HIV-1 capsid; PDB entry 2XDE
[25] = biological target: Serine/threonine-protein kinase 6, Aurora A Kinase; conditions: PDB protein-ligand complexes, literature Kd; protein: Serine/threonine-protein kinase 6, Aurora A Kinase; PDB entry 3MYG
[26] = biological target: purine nucleoside phosphorylase; conditions: PDB protein-ligand complexes, literature Kd; protein: purine nucleoside phosphorylase; PDB entry 1ODJ
[27] = biological target: steroid delta-isomerase; conditions: PDB protein-ligand complexes, literature Kd, protein: steroid delta-isomerase
[28] = biological target: leucine-specific binding protein; conditions: PDB protein-ligand complexes, literature Kd; protein: leucine-specific binding protein; PDB entry 1USK
[29] = biological target: Transporter (E290S mutation); conditions: PDB protein-ligand complexes, literature Kd, protein: Transporter (E290S mutation)
[30] = biological target: glutathione s-transferase; conditions: PDB protein-ligand complexes, literature Kd, protein: glutathione s-transferase

CC[C@H](C)[C@H](NC(=O)[C@H](Cc1c[nH]c2ccccc12)NC(=O)[C@@H](NC(=O)[C@@H](N)CO)C(C)C)C(=O)N1CCC[C@H]1C(=O)N[C@H](C(=O)N[C@@H](CC(N)=O)C(=O)N[C@@H](CCC(=O)O)C(=O)NCC(=O)N[C@@H](C)C(=O)N[C@@H](CO)C(=O)N[C@H](C(=O)N[C@@H](CO)C(=O)NCC(=O)N[C@@H](CCSC)C(=O)O)[C@@H](C)O)C(C)C
Kd [1]: 0.39 µM

O=c1cc(C(F)(F)F)c2c(-c3cccc(C(F)(F)F)c3)[nH]nc2[nH]1
Kd [2]: 10 µM

CC(=O)N[C@H]1[C@H]([C@H](O)[C@H](O)CO)O[C@@](O[C@@H]2[C@@H](O)[C@H](O)O[C@H](CO)[C@@H]2O)(C(=O)O)C[C@@H]1O
Kd ([3]; PDB entry 1UXA): 5000 µM | Kd ([3]; PDB entry 1UXB): 7000 µM

Cc1cc2c(cc1C)N(C[C@H](O)[C@H](O)[C@H](O)COP(=O)(O)O)c1[nH]c(=O)[nH]c(=O)c1N2
Kd ([4]; PDB entry 1AKU): 746 nM | Kd ([4]; PDB entry 1AKV): 0.0026 nM

O=c1[nH]c(=O)c2c([nH]1)n(C[C@@H](O)[C@H](O)[C@H](O)CO)c(=O)n2CCCCC(F)(F)P(=O)(O)O
Kd ([5]; PDB entry 2C94): 0.15 µM

CC1C=NC(=O)NC1=O (stereo not given)
Kd ([6]; PDB entry 4qsu): 10000 µM

C[C@@H](O)[C@H](N)C(=O)O
Kd [7]: 9.3 µM

NCCCCc1ccccc1
Kd ([8]; PDB entry 1UTP): 36000 µM

O=c1[nH]cnc2c(CNC(CO)CO)c[nH]c12
Kd [9]: 5.2 pM

CO[C@H]1C[C@@H]2CC[C@@H](C)[C@@](O)(O2)C(=O)C(=O)N2CCCC[C@H]2C(=O)O[C@H]([C@H](C)C[C@@H]2CC[C@@H](O)[C@H](OC)C2)CC(=O)[C@H](C)/C=C(\C)[C@@H](O)[C@@H](OC)C(=O)[C@H](C)C[C@H](C)/C=C/C=C/C=C/1C
Kd [10]: 0.0002 µM

CC(=O)N[C@@H]1[C@@H](O[C@@H]2O[C@@H](C)[C@@H](O)[C@@H](O)[C@@H]2O)[C@H](O[C@@H]2O[C@H](CO)[C@H](O)[C@H](O)[C@H]2O[C@@H]2O[C@@H](C)[C@@H](O)[C@@H](O)[C@@H]2O)[C@@H](CO)O[C@H]1O
Kd [11]: 202 µM

Cc1cc2nc3c(=O)[nH]c(=O)nc-3n(C[C@H](O)[C@H](O)[C@H](O)CO)c2cc1C
Kd ([12]; PDB entry 2CCB): 0.0358 µM

O=c1[nH]c(=O)c2c([nH]1)n(C[C@@H](O)[C@H](O)[C@H](O)CO)c(=O)n2CCCCCOP(=O)(O)O
Kd ([5]; PDB entry 2C92): 2.11 µM

Cc1cn([C@H]2C[C@H](O)[C@@H](CO)O2)c(=O)[nH]c1=O
Kd ([6]; PDB entry 4qsv): 10000 µM

NCc1ccccc1
Kd [13]: 144 µM | Kd ([8]; PDB entry 1UTN): 321 µM

CO[C@H]1CCCC[C@@H](c2ccccc2)OC(=O)[C@@H](C)[C@@]2(O)O[C@H]([C@@H](C)[C@H](O)[C@H]2OC)[C@@H](C)/C=C/[C@H]1OC
Kd [14]: 0.0039 µM

O=c1ccn([C@H]2C[C@H](O)[C@@H](COP(=O)(O)O)O2)c(=O)[nH]1
Kd [15]: 7.5 µM

O=C1c2ccccc2C(=O)c2c1cc(S(=O)(=O)O)c(O)c2O
Kd [16]: 0.04 µM

O=P(O)(O)O[C@@H]1[C@H](O)[C@H](O)[C@@H](OP(=O)(O)O)[C@H](OP(=O)(O)O)[C@H]1O
Kd [17]: 3.6 µM

OC[C@H]1O[C@@H](O[C@H]2[C@H](O)[C@@H](O)[C@H](O[C@H]3[C@H](O)[C@@H](O)[C@H](O[C@H]4[C@H](O)[C@@H](O)[C@H](O[C@H]5[C@H](O)[C@@H](O)[C@H](O[C@H]6[C@H](O)[C@@H](O)[C@@H](O)O[C@@H]6CO)O[C@@H]5CO)O[C@@H]4CO)O[C@@H]3CO)O[C@@H]2CO)[C@H](O)[C@@H](O)[C@@H]1O
Kd [18]: 80 µM

CC(C)[C@H]1CN[C@H](C(=O)O)[C@H]1CC(=O)O
Kd ([19]; PDB entry 2XXT): 0.009 µM | Kd ([19]; PDB entry 2XXY): 0.0129 µM

O=C(c1c2ccccc2cc2ccccc12)N1CCC(N2CCC[C@@H](C(=O)N3CCOCC3)C2)CC1
Kd [20]: 7.2 µM

Cn1c[n+]([C@@H]2O[C@H](COP(=O)(O)OP(=O)(O)OP(=O)(O)OC[C@H]3O[C@@H](n4cnc5c(=O)[nH]c(N)nc54)[C@H](O)[C@@H]3O)[C@@H](O)[C@H]2O)c2nc(N)[nH]c(=O)c21
Kd [21]: 0.013 µM

CC[C@]1(O)C[C@@H]2CN(CCc3c([nH]c4ccccc34)[C@@](C(=O)OC)(c3cc4c(cc3OC)N(C)[C@H]3[C@@](O)(C(=O)OC)[C@H](OC(C)=O)[C@]5(CC)C=CCN6CC[C@]43[C@@H]65)C2)C1
Kd [22]: 0.4 µM

Cc1cc2nc3[nH]c(=O)[nH]c(=O)c3nc2cc1C
Kd ([12]; PDB entry 2CC7): 0.00988 µM

O=C(N[C@H]1COC(=O)[C@@H](NC(=O)c2cccc(O)c2O)COC(=O)[C@@H](NC(=O)c2cccc(O)c2O)COC1=O)c1cccc(O)c1O
Kd [23]: 0.04 µM

Cc1[nH]c2ccccc2c1CC(=O)N[C@@H](Cc1ccccc1)C(=O)N(C)c1ccccc1
Kd [24]: 3.42 µM

CCN(Cc1cc(Nc2nc(C)cn3c(-c4cn[nH]c4)cnc23)sn1)C(C)(C)CO
Kd [25]: 0.02 nM

Nc1nc2c(ncn2[C@@H]2O[C@H](CO)[C@@H](O)[C@H]2O)c(=O)[nH]1
Kd [26]: 80 µM

C[C@]12CCc3c(ccc4cc(O)ccc34)[C@@H]1CCC2=O
Kd ([27]; PDB entry 1OGX): 0.81 µM | Kd ([27]; PDB entry 1W6Y): 4.4 µM

CC(C)C[C@H](N)C(=O)O
Kd [28]: 0.4 µM | Kd ([29]; PDB entry 4hmk): 0.79 µM | Kd ([29]; PDB entry 4hod): 0.79 µM

N[C@@H](CCC(=O)N[C@@H](CS)C(=O)NCC(=O)O)C(=O)O
Kd ([30]; PDB entry 1OE7): 3 µM | Kd ([30]; PDB entry 1OE8): 3 µM
